{"source": "paper PMC5575007", "about": "“Intermolecular base stacking mediates RNA-RNA interaction in a crystal structure of the RNA chaperone Hfq” (Scientific Reports, 2017)", "proteins": {"B1": {"name": "Escherichia coli Hfq72 (containing amino acids 1–72) (domain or fragment, UniProt P0A6X3 1-72, looked up)", "chain": "MAKGQSLQDPFLNALRRERVPVSIYLVNGIKLQGQIESFDQFVILLKNTVSQMVYKHAISTVVPSRPVSHHS", "notes": "RNA chaperone Hfq, Escherichia coli, amino acids 1-72 (lacks most of the intrinsically disordered C-terminal tail); Homo-hexameric ring; in the crystal and in the AUC sample with 'AA0' it carried RNA; also called Hfq72 hexamer; Hfq72_(6); source: E. coli BL21(DE3), purified (Ni-Sepharose, SenP2 cleavage, second Ni purification, Superdex 200)"}}, "molecular_target": "the molecule itself", "experiment": "AUC; sedimentation velocity, Hfq72 with 'AA0' RNA, 33 µM, 20 °C, 45 000 rpm, AUC-buffer (0.25 M NaCl, 0.02 M Hepes pH 8.0, 0.005 M MgCl2, 2% Glycerol), absorbance at 254 nm"}
{"protein": "B1", "values": [{"measurement": "stoichiometry N", "value": 6}]}
